{"source": "patent US7871808B2", "about": "“Isolated microorganism having an ability to produce L-histidine” (priority 1999, dated 2011)", "test_system": "parent strain H-9340", "note": "Structures can show the parent of a compound that is named as a salt.", "data": [{"smiles": "COc1cc(NC(C)CCCN)c2ncccc2c1", "note": "(centres unmarked) [Primaquine disodium salt, primaquine disodium salt]", "values": [{"measurement": "Growth or non-growth of the strain on agar plate medium", "setting": "150 mg/liter primaquine disodium salt in agar plate medium, 1 to 10 cells/cm^2, 33° C. for 4 days", "value": "−"}, {"measurement": "Growth of the strain on agar plate culture medium containing primaquine", "setting": "agar plate culture medium containing primaquine, 33° C. for 4 days", "value": "did not grow"}]}]}
